{"source": "patent US8729088B2", "about": "“Toll-like receptor modulators and treatment of diseases” (The Regents of the University of California, priority 2009, dated 2014)", "key": {"TLR7 [1]": {"target": "T1, TLR7 (Homo sapiens, UniProt Q9NYK1)", "T1 sequence (Q9NYK1 27-1049)": "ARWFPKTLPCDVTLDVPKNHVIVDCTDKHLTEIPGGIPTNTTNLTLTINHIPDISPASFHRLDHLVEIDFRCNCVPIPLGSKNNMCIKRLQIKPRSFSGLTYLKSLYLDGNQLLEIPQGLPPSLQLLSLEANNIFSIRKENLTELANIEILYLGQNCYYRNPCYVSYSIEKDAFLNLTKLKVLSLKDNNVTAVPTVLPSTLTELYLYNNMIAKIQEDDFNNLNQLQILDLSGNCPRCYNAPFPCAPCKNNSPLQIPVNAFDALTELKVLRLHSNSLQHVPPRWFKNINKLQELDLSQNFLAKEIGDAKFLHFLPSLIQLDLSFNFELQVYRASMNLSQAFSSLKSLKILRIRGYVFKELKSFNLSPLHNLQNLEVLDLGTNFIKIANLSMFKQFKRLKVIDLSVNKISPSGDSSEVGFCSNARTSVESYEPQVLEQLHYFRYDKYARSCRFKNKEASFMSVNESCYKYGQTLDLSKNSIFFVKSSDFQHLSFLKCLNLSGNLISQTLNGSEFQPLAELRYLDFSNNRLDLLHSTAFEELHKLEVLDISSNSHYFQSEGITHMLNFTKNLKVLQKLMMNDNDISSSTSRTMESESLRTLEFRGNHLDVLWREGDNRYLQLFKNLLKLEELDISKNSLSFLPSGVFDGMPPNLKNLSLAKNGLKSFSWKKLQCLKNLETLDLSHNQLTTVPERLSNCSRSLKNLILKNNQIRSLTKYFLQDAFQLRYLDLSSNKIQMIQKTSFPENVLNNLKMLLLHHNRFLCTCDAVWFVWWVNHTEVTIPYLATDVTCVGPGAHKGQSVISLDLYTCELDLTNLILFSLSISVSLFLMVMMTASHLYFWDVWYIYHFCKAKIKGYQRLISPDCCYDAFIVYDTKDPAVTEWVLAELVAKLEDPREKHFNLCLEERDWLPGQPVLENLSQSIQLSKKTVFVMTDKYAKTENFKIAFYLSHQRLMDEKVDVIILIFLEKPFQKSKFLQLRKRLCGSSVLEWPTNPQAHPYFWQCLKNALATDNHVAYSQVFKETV", "conditions": "literature reference (8); cited from earlier work"}, "TLR7 [2]": {"target": "T1, TLR7", "assay": "Cytokine induction in human PBMC, LUMINEX bead assay", "format": "cell-based", "set-up": "endogenous in cells; host or cells: human PBMC from buffy coats (The San Diego Blood Bank)", "conditions": "18 hours", "protocol": "Human blood peripheral mononuclear cells (PBMC) were isolated from human buffy coats, purchased from The San Diego Blood Bank (San Diego, Calif.), as described in Hayashi, T et al., “Enhancement of innate immunity against Mycobacterium avium infection by immunostimulatory DNA is mediated by indoleamine 2,3-dioxygenase”, Infect Immun 69:6156-64, (2001). PBMC (1×10^6/mL) were incubated with various concentrations of TLR7 conjugates for 18 hours at 37° C., 5% CO2 and culture supernatants were collected. The levels of cytokines (IL-6, TNF-α, or IFNα1) in the supernatants were determined by LUMINEX bead assays (Invitrogen, Carlsbad, Calif.), and the results presented in FIG. 3A-B. Data are mean±SEM of triplicates and are representative of three independent experiments. The minimum detection levels of IL-6, TNF-α, and IFNα1 were 6 pg/mL, 10 pg/mL and 15 pg/mL, respectively.\nTo further investigate the immunological activities in human cells, human PBMC from three donors were treated with TLR7 conjugates and the levels of IL-6 and IFNa1 were determined by LUMINEX assay (FIG. 3A-B). Human serum albumin (HSA) conjugated to TLR7 (4b) was used instead of MSA-conjugates (4a) in this experiment. The order of TLR7 conjugate potency was similar to the order observed in murine macrophages ((4b)>(6)>(9)>/=SM>(8)) (FIG. 3A)."}, "TLR7 [3]": {"target": "T2, TLR7 (Mus musculus, UniProt P58681)", "T2 sequence (P58681 27-1050)": "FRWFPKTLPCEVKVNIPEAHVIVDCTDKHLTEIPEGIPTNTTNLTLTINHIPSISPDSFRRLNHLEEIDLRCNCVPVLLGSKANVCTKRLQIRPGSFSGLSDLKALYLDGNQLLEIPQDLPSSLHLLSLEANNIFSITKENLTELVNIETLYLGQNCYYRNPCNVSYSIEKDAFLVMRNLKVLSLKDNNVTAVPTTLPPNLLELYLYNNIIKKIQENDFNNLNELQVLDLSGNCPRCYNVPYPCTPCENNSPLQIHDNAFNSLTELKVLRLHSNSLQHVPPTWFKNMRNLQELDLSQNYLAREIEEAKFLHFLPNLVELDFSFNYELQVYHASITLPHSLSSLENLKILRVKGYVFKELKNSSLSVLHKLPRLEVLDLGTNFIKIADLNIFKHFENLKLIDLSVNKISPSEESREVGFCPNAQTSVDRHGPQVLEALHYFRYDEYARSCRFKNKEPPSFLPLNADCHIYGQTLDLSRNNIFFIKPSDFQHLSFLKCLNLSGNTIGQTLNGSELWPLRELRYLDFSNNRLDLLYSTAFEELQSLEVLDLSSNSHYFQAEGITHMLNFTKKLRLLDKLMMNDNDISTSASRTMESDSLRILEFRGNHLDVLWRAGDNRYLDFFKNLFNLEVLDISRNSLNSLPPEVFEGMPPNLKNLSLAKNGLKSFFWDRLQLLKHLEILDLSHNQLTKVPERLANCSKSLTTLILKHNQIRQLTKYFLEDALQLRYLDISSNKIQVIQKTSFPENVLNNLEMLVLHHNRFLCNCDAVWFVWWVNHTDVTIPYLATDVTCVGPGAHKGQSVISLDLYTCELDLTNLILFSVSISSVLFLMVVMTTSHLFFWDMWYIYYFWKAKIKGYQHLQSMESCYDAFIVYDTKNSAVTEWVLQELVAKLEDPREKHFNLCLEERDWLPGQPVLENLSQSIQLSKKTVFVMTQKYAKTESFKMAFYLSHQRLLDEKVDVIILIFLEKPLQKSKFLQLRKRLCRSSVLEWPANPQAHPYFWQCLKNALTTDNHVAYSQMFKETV", "assay": "Cytokine induction in BMDM from wild type and TLR7 deficient mice", "format": "cell-based", "set-up": "endogenous in cells; host or cells: primary BMDM from C57BL/6 mice", "protocol": "In vitro measurements of cytokine induction were performed using the mouse leukemic monocyte macrophage cell line, RAW264.7. […] BMDM were prepared from C57BL/6 and TLR7 deficient mice as described in Wu, C. C et al., (2007) “Immunotherapeutic activity of a conjugate of a Toll-like receptor 7 ligand”, Proc Natl Acad Sci USA 104, 3990-5.\nIn general, RAW264.7 cells or BMDM were incubated with various concentrations of conjugates for 18 hours at 37° C., 5% CO2 and culture supernatants were collected. The levels of cytokines (IL-6, IL-12 or TNF-α in the supernatants were determined by ELISA (BD Biosciences Pharmingen, La Jolla, Calif.) (Cho, H. J et al., “Immunostimulatory DNA-based vaccines induce cytotoxic lymphocyte activity by a T-helper cell-independent mechanism” [see comments], Nat Biotechnol 18, 509-14 (2000)), and the results presented in FIG. 2A-D. Data are mean±SEM of triplicates and are representative of three independent experiments. Minimum detection levels of these cytokines were 15 pg/mL."}}, "data": [{"smiles": "COCCOc1nc(N)c2nc(O)n(Cc3ccccc3)c2n1", "note": "[SM, 9-benzyl-8-hydroxy-2-(2-methoxyethoxy) adenine, reference compound]", "values": [{"measurement": "TLR7 agonist activity", "setting": "TLR7 [1]", "value": "potent and specific TLR7 agonist"}, {"measurement": "order of TLR7 conjugate potency", "setting": "TLR7 [2]", "value": "(4b)>(6)>(9)>/=SM>(8)"}, {"measurement": "agonist activity (IL-12, IL-6)", "setting": "TLR7 [3]", "value": "active"}]}]}
